Laboratory results taken from patent publication US20030176351A1, “Peptides and peptide analogues designed from a diabetes-associated autoantigen, and methods for their use in the treatment and prevention of diabetes” (priority 1999, published 2003).

System: T cell clone BRI.4-10
Test: prepulse antagonism assay, response to GAD65 555-567, clone BRI.4-10
Assay type: cell-based, human
Details: clone BRI.4-10, APC pre-pulsed with agonist peptide 555-567

| SMILES | effect on T cell proliferative response (in words) |
| --- | --- |
| CC[C@H](C)[C@H](NC(=O)[C@@H](NC(=O)[C@H](CCSC)NC(=O)[C@H](CCCNC(=N)N)NC(=O)[C@H](Cc1ccccc1)NC(=O)[C@H](Cc1ccccc1)NC(=O)[C@@H](N)CC(N)=O)C(C)C)C(=O)N[C@@H](CO)C(=O)N[C@@H](CCC(N)=O)C(=O)N1CCC[C@H]1C(=O)N[C@@H](C)C(=O)N[C@@H](C)C(=O)N[C@H](C(=O)O)[C@@H](C)O [563 Q] | no effect |
| CCCC[C@H](NC(=O)[C@H](CCCNC(=N)N)NC(=O)[C@H](Cc1ccccc1)NC(=O)[C@H](Cc1ccccc1)NC(=O)[C@@H](N)CC(N)=O)C(=O)N[C@H](C(=O)N[C@H](C(=O)N[C@@H](CO)C(=O)N[C@@H](CC(N)=O)C(=O)N1CCC[C@H]1C(=O)N[C@@H](C)C(=O)N[C@@H](C)C(=O)N[C@H](C(=O)O)[C@@H](C)O)[C@@H](C)CC)C(C)C [559 Nle] | no effect |
